The compounds below were run on JAK1-dependent STAT6 phosphorylation downstream of IL-13 stimulation in BEAS-2B cells.
In the case of `CN1CCN(C(=O)Cn2cc(Nc3nc4c(N5CC6CCC(C5)N6C(=O)CC5CC(F)(F)C5)cccn4n3)cn2)CC1` [Example 8, 2-(3,3-difluorocyclobutyl)-1-[3-[2-[[1-[2-(4-methylpiperazin-1-yl)-2-oxo-ethyl]pyrazol-4-yl]amino]-[1,2,4]triazolo[1,5-a]pyridin-8-yl]-3,8-diazabicyclo[3.2.1]octan-8-yl]ethanone], the IC50 is reported as 36.6 nM. `CN1CCN(C(=O)Cn2cc(Nc3nc4c(N5CC6CCC(C5)N6S(=O)(=O)c5ccc(Cl)cc5)cccn4n3)cn2)CC1` [Example 93, 2-[4-[[8-[8-(4-chlorophenyl)sulfonyl-3,8-diazabicyclo[3.2.1]octan-3-yl]-[1,2,4]triazolo[1,5-a]pyridin-2-yl]amino]pyrazol-1-yl]-1-(4-methylpiperazin-1-yl)ethanone] was tested, and the IC50 was 14.1 nM. `CN1CCN(C(=O)Cn2cc(Nc3nc4c(N5CC6CCC(C5)N6S(=O)(=O)c5ccccc5F)cccn4n3)cn2)CC1` [Example 150, 2-[4-[[8-[8-(2-fluorophenyl)sulfonyl-3,8-diazabicyclo[3.2.1]octan-3-yl]-[1,2,4]triazolo[1,5-a]pyridin-2-yl]amino]pyrazol-1-yl]-1-(4-methylpiperazin-1-yl)ethanone] was tested, and the IC50 was 31.7 nM. For `CC(C(=O)N1CCN(C)CC1)n1cc(Nc2nc3c(N4CC5CCCC(C4)N5C(=O)CCC(F)(F)F)cccn3n2)cn1` (stereo not drawn) [Example 105, 4,4,4-trifluoro-1-[3-[2-[[1-[1-methyl-2-(4-methylpiperazin-1-yl)-2-oxo-ethyl]pyrazol-4-yl]amino]-[1,2,4]triazolo[1,5-a]pyridin-8-yl]-3,9-diazabicyclo[3.3.1]nonan-9-yl]butan-1-one], the IC50 was 41.2 nM. `CN1CCN(C(=O)Cn2cc(Nc3nc4c(N5CC6CCC(C5)N6C(=O)c5ccc(C#N)cc5)cccn4n3)cn2)CC1` [Example 185] was tested, and the IC50 was 25.2 nM. For `CC(CC(=O)N1C2CCC1CN(c1cccn3nc(Nc4cnn(CC(=O)N5CCN(C)CC5)c4)nc13)C2)C(F)(F)F` (stereo not drawn) [Example 67, 4,4,4-trifluoro-3-methyl-1-[3-[2-[[1-[2-(4-methylpiperazin-1-yl)-2-oxo-ethyl]pyrazol-4-yl]amino]-[1,2,4]triazolo[1,5-a]pyridin-8-yl]-3,8-diazabicyclo[3.2.1]octan-8-yl]butan-1-one], the IC50 was 40.9 nM. `CN1CCN(C(=O)Cn2cc(Nc3nc4c(N5CC6CCC(C5)N6S(=O)(=O)c5cccc(C#N)c5)cccn4n3)cn2)CC1` [Example 143, 3-[[3-[2-[[1-[2-(4-methylpiperazin-1-yl)-2-oxo-ethyl]pyraol-4-yl]amino]-[1,2,4]triazolo[1,5-a]pyridin-8-yl]-3,8-diazabicyclo[3.2.1]octan-8-yl]sulfonyl]benzonitrile] showed an IC50 of 34.1 nM. Compound `CN1CCN(C(=O)Cn2cc(Nc3nc4c(N5C[C@H]6CC[C@@H](C5)[C@H]6OCc5cccnc5)cccn4n3)cn2)CC1` [Example 84, 1-(4-methylpiperazin-1-yl)-2-[4-[[8-[(1S,5R)-8-(3-pyridylmethoxy)-3-azabicyclo[3.2.1]octan-3-yl]-[1,2,4]triazolo[1,5-a]pyridin-2-yl]amino]pyrazol-1-yl]ethanone] has an IC50 of 17.1 nM. `CN1CCN(C(=O)Cn2cc(Nc3nc4c(N5CC6CCC(C5)N6S(=O)(=O)Cc5ccccc5F)cccn4n3)cn2)CC1` [Example 158, 2-[4-[[8-[8-[(2-fluorophenyl)methylsulfonyl]-3,8-diazabicyclo[3.2.1]octan-3-yl]-[1,2,4]triazolo[1,5-a]pyridin-2-yl]amino]pyrazol-1-yl]-1-(4-methylpiperazin-1-yl)ethanone] showed an IC50 of 73.2 nM. `CN1CCN(C(=O)Cn2cc(Nc3nc4c(N5CC6CCCC(C5)N6C(=O)[C@H]5C[C@@H](C(F)(F)F)C5)cccn4n3)cn2)CC1` [Example 65, 1-(4-methylpiperazin-1-yl)-2-[4-[[8-[9-[3-(trifluoromethyl)cyclobutanecarbonyl]-3,9-diazabicyclo[3.3.1]nonan-3-yl]-[1,2,4]triazolo[1,5-a]pyridin-2-yl]amino]pyrazol-1-yl]ethanone] showed an IC50 of 29.5 nM. With `CN1CCN(C(=O)Cn2cc(Nc3nc4c(N5CC6CCC(C5)N6S(=O)(=O)Cc5ccccc5C(F)(F)F)cccn4n3)cn2)CC1` [Example 167, 1-(4-methylpiperazin-1-yl)-2-[4-[[8-[8-([2-(trifluoromethyl)phenyl]methylsulfonyl]-3,8-diazabicyclo[3.2.1]octan-3-yl]-[1,2,4]triazolo[1,5-a]pyridin-2-yl]amino]pyrazol-1-yl]ethanone] the IC50 was 172 nM. Compound `CN1CCN(C(=O)Cn2cc(Nc3nc4c(N5CC6CCC(C5)N6Cc5cccc(C#N)c5)cccn4n3)cn2)CC1` [Example 55, 3-[[3-[2-[[1-[2-(4-methylpiperazin-1-yl)-2-oxo-ethyl]pyrazol-4-yl]amino]-[1,2,4]triazolo[1,5-a]pyridin-8-yl]-3,8-diazabicyclo[3.2.1]octan-8-yl]methyl]benzonitrile] has an IC50 of 30.2 nM. `CN1CCN(C(=O)Cn2cc(Nc3nc4c(N5CC6CCC(C5)N6C(=O)c5cccc(Cl)c5)cccn4n3)cn2)CC1` [Example 90, 2-[4-[[8-[8-(3-chlorobenzoyl)-3,8-diazabicyclo[3.2.1]octan-3-yl]-[1,2,4]triazolo[1,5-a]pyridin-2-yl]amino]pyrazol-1-yl]-1-(4-methylpiperazin-1-yl)ethanone] showed an IC50 of 37.3 nM. With `O=C(Cn1cc(Nc2nc3c(N4CC5CCC(C4)N5C(=O)CCC(F)(F)F)cccn3n2)cn1)N1CCN(C2CCOCC2)CC1` [Example 10, 4,4,4-trifluoro-1-[3-[2-[[1-[2-oxo-2-(4-tetrahydropyran-4-ylpiperazin-1-yl)ethyl]pyrazol-4-yl]amino]-[1,2,4]triazolo[1,5-a]pyridin-8-yl]-3,8-diazabicyclo[3.2.1]octan-8-yl]butan-1-one] the IC50 was 66.6 nM. In the case of `CN1CCN(C(=O)Cn2cc(Nc3nc4c(N5CC6CCC(C5)N6C(=O)c5ccccc5CC#N)cccn4n3)cn2)CC1` [Example 68], the IC50 is reported as 113 nM. Compound `CN1CCN(C(=O)Cn2cc(Nc3nc4c(N5CC6CCC(C5)N6CC5(CC#N)CC5)cccn4n3)cn2)CC1` [Example 72, 2-[1-[[3-[2-[[1-[2-(4-methylpiperazin-1-yl)-2-oxo-ethyl]pyrazol-4-yl]amino]-[1,2,4]triazolo[1,5-a]pyridin-8-yl]-3,8-diazabicyclo[3.2.1]octan-8-yl]methyl]cyclopropyl] acetonitrile] has an IC50 of 55.3 nM. In the case of `CN1CCN(C(=O)Cn2cc(Nc3nc4c(N5CC6CCC(C5)N6C(=O)CC(C)(C)C(F)(F)F)cccn4n3)cn2)CC1` [Example 77, 4,4,4-trifluoro-3,3-dimethyl-1-[3-[2-[[1-[2-(4-methylpiperazin-1-yl)-2-oxo-ethyl]pyrazol-4-yl]amino]-[1,2,4]triazolo[1,5-a]pyridin-8-yl]-3,8-diazabicyclo[3.2.1]octan-8-yl]butan-1-one], the IC50 is reported as 59.8 nM. Work on `COc1ccc(CO[C@H]2[C@@H]3CC[C@H]2CN(c2cccn4nc(Nc5cnn(CC(=O)N6CCN(C)CC6)c5)nc24)C3)cc1` [Example 163, 1-(4-methylpiperazin-1-yl)-2-[4-[[8-[rac-(1S,5R)-8-[(4-methoxyphenyl)methoxy]-3-azabicyclo[3.2.1]octan-3-yl]-[1,2,4]triazolo[1,5-a]pyridin-2-yl]amino]pyrazol-1-yl]ethanone] yielded an IC50 of 62.1 nM.

Source: patent US10189836B2, “Therapeutic compounds, compositions and methods of use thereof” (Genentech, Inc., priority 2015, dated 2019)
